Experimental data as given in article PMC3702509, “Label Free Fragment Screening Using Surface Plasmon Resonance as a Tool for Fragment Finding – Analyzing Parkin, a Difficult CNS Target” (PLoS ONE, 2013).

Amino acid sequences for entries named in this document (tags omitted). A change or cut given only in a name is not applied to a line headed by its entry.
UniProt O60260: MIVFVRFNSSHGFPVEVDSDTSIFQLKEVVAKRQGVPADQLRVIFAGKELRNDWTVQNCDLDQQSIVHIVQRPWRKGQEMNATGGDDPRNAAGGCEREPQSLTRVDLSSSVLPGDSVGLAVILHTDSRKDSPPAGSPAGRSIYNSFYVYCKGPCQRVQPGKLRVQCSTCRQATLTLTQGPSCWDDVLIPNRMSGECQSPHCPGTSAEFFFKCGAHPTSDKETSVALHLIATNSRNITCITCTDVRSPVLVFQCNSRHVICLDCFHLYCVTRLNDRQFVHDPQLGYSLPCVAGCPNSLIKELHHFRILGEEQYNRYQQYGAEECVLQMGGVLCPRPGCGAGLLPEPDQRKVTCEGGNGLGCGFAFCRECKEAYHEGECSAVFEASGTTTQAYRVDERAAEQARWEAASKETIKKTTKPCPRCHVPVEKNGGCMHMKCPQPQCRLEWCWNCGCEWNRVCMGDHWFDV
UniProt P68036, whole entry: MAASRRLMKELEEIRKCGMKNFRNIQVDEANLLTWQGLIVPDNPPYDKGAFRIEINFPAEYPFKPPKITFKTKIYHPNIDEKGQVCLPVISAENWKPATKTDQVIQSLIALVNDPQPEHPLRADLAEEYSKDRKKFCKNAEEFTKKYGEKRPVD

Experiments:
[1] = molecular target: FL-FLAG-Parkin (full-length Parkin with N-terminal 3xFLAG and TEV site) (human) (UniProt O60260); test: SPR; non-thermal treated (RT) FL-FLAG Parkin captured on amine-coupled anti-FLAG M2 antibody on a CM5 chip at 3:1 (Parkin:Ab); protein ligands injected in dilution series; 25°C; 10 mM HEPES pH 7.4, 150 mM NaCl, 0.005% Tween-20, 4 mM reducing agent; 1:1 binding model; Biacore T100 or T200
[2] = molecular target: FL-FLAG-Parkin (full-length Parkin with N-terminal 3xFLAG and TEV site) (human) (UniProt O60260); test: SPR; thermal treated (56°C) FL-FLAG Parkin captured on amine-coupled anti-FLAG M2 antibody on a CM5 chip; protein ligands injected; 25°C; 10 mM HEPES pH 7.4, 150 mM NaCl, 0.005% Tween-20, 4 mM reducing agent; 1:1 binding model

Kd [1]: 4.7 µM
dissociation time (printed beside kd) [1]: 30 s
Kd [2]: 8.1 µM
Substance: UbcH7, E2 ubiquitin conjugating enzyme (UBE2L3 residues 1-154) (from UniProt P68036-1 1-154) (enzyme; other documents disagree on this pair)
